Apparent affinities of Ab-14 variants for a coronavirus HR2 peptide

Reference: Engelhart et al. 2022, doi:10.1038/s41597-022-01779-4. File: FLAb, binding data.

All variants were tested on one target, the spike HR2 peptide PDVDLGDISGINAS (SARS-CoV-2).

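Phage display of a naive human antibody library on the peptide gave the parent. The library (AAYL50) carries one to three amino acid substitutions per variant, with no insertions or deletions. AlphaSeq pools MATa yeast showing the antibodies with MATalpha yeast showing the peptide. Mating (16 h, 30 °C) was followed by selection of diploids and sequencing of their barcodes. The ratio of observed to expected reads was calibrated, replicate by replicate, on BCL2-family standards whose Kd was known from biolayer interferometry. Mating was done three times.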

The variants keep the heavy chain, the linker and the frameworks of Ab-14 (scFv order VH, the linker GGGGSGGGGSGGGGS, VL).
VH: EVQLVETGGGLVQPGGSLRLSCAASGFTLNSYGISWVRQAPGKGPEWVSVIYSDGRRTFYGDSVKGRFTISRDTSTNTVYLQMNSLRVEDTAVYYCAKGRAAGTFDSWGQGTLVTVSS
VL: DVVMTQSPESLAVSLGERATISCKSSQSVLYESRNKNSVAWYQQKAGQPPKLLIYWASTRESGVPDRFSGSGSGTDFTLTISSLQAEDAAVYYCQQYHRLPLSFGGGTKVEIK

Each variant is given by its three light chain CDRs, as the data file delimits them; those of the parent are KSSQSVLYESRNKNSVA, WASTRES, QQYHRLPLS. This list gathers variants with a substitution at S38 (VL, numbered from residue 1). Each Kd is an estimate from the mating assay, the geometric mean of the replicates in which the pair was seen; lower is stronger. "nd" means that the variant was in the library but no mating with the target was seen in any replicate; the authors take this as a sign of poor binding, and no number exists. In this assay the parent's reference entry averaged 4.4 nM; its copy inside this library read 48 nM. Background: pairings of library AAYL50 with three empty control strains gave a value in 18% of cases (median 15 µM, 5th percentile 970 nM). Values in that range, when seen in few replicates, are hard to tell from nonspecific mating. For each scFv, signals with the empty controls are counted beside the result.

The variant KSSQSVLYESRNKNDVA | WESTRES | QQYHRLPLS showed 150 µM (2 of 3 replicates; controls 3 of 9). The variant KSSQSVLYESRQKNAVA | WVSTRES | QQYHRLPLS gave 20 nM (3 of 3 replicates; controls 1 of 9). With KHSQSVLYESRNKNYVA | WASMRES | QQYHRLPLS the result was 59 nM (3 of 3 replicates; controls 1 of 9). With KSSQSVLYEYRNKNAVA | WASTRES | QQYHRLPDS the result was nd (0 of 3 replicates; controls 0 of 9). The variant KSSQSVLYESRNKNGVA | TASTRES | QQYHRLMLS gave 78 µM (3 of 3 replicates; controls 3 of 9). The variant KSSQSVLYESRNKNWVA | WASTRPS | QQKHRLPLS showed nd (0 of 3 replicates; controls 3 of 9). With KSSQSVLYESRNKNIVA | WASTRES | QQYHCLPLY the result was nd (0 of 3 replicates; controls 0 of 9). The variant KSSQSCLYESRNKNEFA | WASTRES | QQYHRLPLS gave 120 µM (1 of 3 replicates; controls 1 of 9).

For KSSQSYLYESRNKNDVA | WASTRES | QQYHRLPNS, the assay gave 59 µM (1 of 3 replicates; controls 6 of 9). The variant KESQSVLYESRNKNQVA | WASTRES | QQYHRLPLS showed 16 nM (3 of 3 replicates; controls 0 of 9). With KSSQSVLYESRNKNLVA | WASTRES | QQYHRHPLS the result was 3.2 µM (1 of 3 replicates; controls 3 of 9). The variant KSSQSVLYESRNKNMTA | WASTRES | QQYHRNPLS gave 1.7 µM (1 of 3 replicates; controls 3 of 9). With KSSQSVLYVSRNKNRVA | WASTRES | QQYGRLPLS the result was 32 µM (1 of 3 replicates; controls 1 of 9). With KSSQSILYESRKKNCVA | WASTRES | QQYHRLPLS the result was 420 nM (3 of 3 replicates; controls 2 of 9). The variant KMSQSVLYESRNKNNVA | WASGRES | QQYHRLPLS gave 290 nM (3 of 3 replicates; controls 2 of 9). The variant KSSQSVLYESRNKIISA | WASTRES | QQYHRLPLS gave nd (0 of 3 replicates; controls 1 of 9).

With DSSQSVLYESRNKNCVA | KASTRES | QQYHRLPLS the result was 20 nM (3 of 3 replicates; controls 0 of 9). The variant KSSQSVLYESRNKNIVA | WAPTRES | QQQHRLPLS showed nd (0 of 3 replicates; controls 0 of 9). The variant KSSQSVLYEKRNKKCVA | WASTRES | QQYHRLPLS showed 3.6 µM (2 of 3 replicates; controls 3 of 9). The variant KSSQSVLYPSRNKKGVA | WASTRES | QQYHRLPLS showed 1.4 µM (3 of 3 replicates; controls 1 of 9). With KFSQSVLYESRNKNYVG | WASTRES | QQYHRLPLS the result was 170 µM (1 of 3 replicates; controls 0 of 9). The variant KSSQSVLYCSRNKNIVA | WASTREC | QQYHRLPLS showed nd (0 of 3 replicates; controls 3 of 9). The variant KSSQSVLYESRNKNTDA | WASTRMS | QQYHRLPLS gave nd (0 of 3 replicates; controls 1 of 9). For KSSQSVLYESRNKNPMA | WASTRYS | QQYHRLPLS, the assay gave 120 nM (3 of 3 replicates; controls 2 of 9).

The variant KSSQAVLYESRNKNAVA | WASNRES | QQYHRLPLS gave 39 nM (3 of 3 replicates; controls 0 of 9). The variant KSSQSVLYESRAKNYVA | WASTRES | QQYHSLPLS gave nd (0 of 3 replicates; controls 0 of 9). With KSTQSVLYESRNKNKVD | WASTRES | QQYHRLPLS the result was 30 µM (2 of 3 replicates; controls 1 of 9).